Laboratory results reported in the Human Domainome abundance scans (Beltran et al. 2025).

B1: X-ray repair cross-complementing protein 6, residues 558 to 609; numbered along this chain, P12956 (parent)
chain: EYSEEELKTHISKGTLGKFTVPMLKEACRAYGLKSGLKKQELLEALTKHFQD

Variants of: B1
Experiment: abundance fitness (aPCA) (normalised: wild type 0, dead -1); higher = more abundant; growth selection in yeast, the domain comes from the species named
Conditions: Homo sapiens

Abundance fitness of substitutions, site by site:
T47: Y -0.066
K48: A -0.018, C -0.11, D -0.031, E 0.02, F -0.354, H -0.368, I -0.338, L -0.043, M -0.006, N -0.088, P -0.811, Q 0.166, R -0.086, S -0.115, T -0.109, V -0.152, W -0.297, Y -0.313
H49: A -0.426, C -0.398, D -0.932, E -0.562, F 0.281, I -0.573, K -0.413, L -0.654, M -0.346, N -0.508, P -0.534, R -0.225, S -0.466, T -0.663, V -0.594, W -0.403, Y -0.096
F50: A -0.487, C -0.387, G -0.705, H -0.765, I -0.4, K -0.766, L -0.366, M -0.304, P -0.702, Q -0.398, R -0.964, S -0.529, T -0.738, V -0.239, W -0.443, Y -0.392
Q51: A -0.145, C -0.66, D -0.19, E -0.286, F -0.301, H -0.124, L -0.714, M -0.255, P -0.566, R -0.181, S 0.019, T -0.294, Y -0.329
D52: A -0.355, E 0.11, G 0.063, P -0.512, S -0.495, T -0.208, V -0.342, Y 0.184
